Results on 95 compounds are retold here after PubChem BioAssay AID1377 (University of Pittsburgh Molecular Library Screening Center, 2008).

Structures are written as SMILES. Several values for one entry are separate records, joined by “and”; a condition that tells them apart may be missing. Equal values may be shown once. This is a selection; strong and weak results do not stand in their true shares. Activity calls are given as the source filed them.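 Rule for the calls: active = activation, scaled between plate controls, above about 75% (limit read from the data); inactive = activation under that limit.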

This test in a line: inhibitors of zVAD-triggered necroptosis, primary screen, L929 cells (AID 1377).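 Note: 0% = zVAD with DMSO and 100% = DMSO alone without zVAD.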 Particulars: ATP luminescence, 24 h, at 10 µM, stronger effect = higher value; with zVAD 60 µM unless noted.
Regarding `C[C@H]1OP(=O)(Oc2ccccc2)[C@H](O)[C@H](O)[C@H]1N=[N+]=[N-]` (stereo not given in full), the viability rescue is inactive: -0.48%.

Take `O=P(Nc1nc2ccccc2s1)(c1ccccc1)c1ccccc1`: the viability rescue was inactive: 0.35%.

`O=P(Nc1ccccn1)(c1ccc(Br)cc1)c1ccc(Br)cc1`: the viability rescue is inactive: 2.2%.

For `O=C(OC1CN2CCC1CC2)c1cccc(Cl)c1` (stereo not given), the viability rescue was inactive: 1.58% [with zVAD 20 µM].

Turning to `Nc1ccc([As](=O)(O)c2ccc([N+](=O)[O-])cc2)cc1`, the viability rescue was inactive: 0.79%.

As for `C(Cc1nn[nH]n1)Cc1nn[nH]n1`, the viability rescue is inactive: 0.17%.

Regarding `O=[As](O)(c1ccccc1)c1ccc(O)cc1`, the viability rescue was inactive: -0.22%.

In the case of `O=[N+]([O-])c1ncn(CCn2cnc([N+](=O)[O-])n2)n1`, the viability rescue was inactive: -0.17%.

On to `c1nnnn1CCn1cnnn1`, for which the viability rescue is inactive: 0.04% [with zVAD 20 µM].

Regarding `O=P(Nc1nccs1)(c1ccccc1)c1ccccc1`, the viability rescue was inactive: -0.09% [with zVAD 20 µM].

On to `CC(C)C(=O)NC(Sc1ccccc1)C(Cl)(Cl)Cl` (stereo not given), for which the viability rescue is inactive: 0.52%.

With `CC(C)(C)C(=O)NC(Sc1ccccc1)C(Cl)(Cl)Cl` (stereo not given), the viability rescue is inactive: 0.82%.

For the compound `CCOc1ccc(C2=NCC(CBr)S2)cc1` (stereo not given), the viability rescue was inactive: -0.43%.

`O=P1(Nc2nc3ccc(Cl)cc3s2)COc2ccccc2O1` (stereo not given): the viability rescue was inactive: 2.74% [with zVAD 20 µM].

Consider `CC(=O)Nc1ccc(Oc2c([N+](=O)[O-])cc([N+](=O)[O-])cc2[N+](=O)[O-])cc1`, for which the viability rescue is inactive: 1.21%.

Turning to `CC(=O)Nc1ccc([As](=O)(O)O)c(O)c1`, the viability rescue is inactive: 1.69%.

In the case of `C[C@@H]1C=CCP(=O)(Oc2ccccc2)O1` (stereo not given in full), the viability rescue was inactive: 0.41%.

As to `C[C@H]1OP(=O)(Oc2ccccc2)C[C@@H]2O[C@@H]21` (stereo not given in full), the viability rescue was inactive: -0.36%.

Regarding `CCOC(=O)NC(Sc1ccccc1)C(Cl)(Cl)Cl` (stereo not given), the viability rescue was inactive: 0.28% [with zVAD 20 µM].

On to `Cc1ccc(NP(=O)(Oc2cccc(C)c2)Oc2cccc(C)c2)nc1`, for which the viability rescue was inactive: 0.57%.

Take `c1ccc(-c2nn[nH]n2)c(-c2nn[nH]n2)c1`: the viability rescue was inactive: 0.87%.

As for `O=C(NC1CCS(=O)(=O)C1)NP(=S)(Oc1ccccc1)Oc1ccccc1` (stereo not given), the viability rescue is inactive: 2.2%.

Consider `CCNC(=S)/N=C(\N)N[N+](=O)[O-]`, for which the viability rescue was inactive: 1.15%.

As for `CN(C)C(=O)Oc1noc2ccccc12`, the viability rescue was inactive: 0.07%.

Turning to `O=c1c2cc([N+](=O)[O-])ccc2[nH]c2c([N+](=O)[O-])cc([N+](=O)[O-])cc12`, the viability rescue was inactive: 59.8%.

For `Cc1ccccc1OP(=O)(Nc1ccccn1)Oc1ccccc1C`, the viability rescue was inactive: -0.33%.

As for `CCC(=O)N1C2C3N(C(=O)CC)C1C1N(C(=O)CC)C(C(N1C(=O)CC)N3C(=O)CC)N2C(=O)CC`, the viability rescue was inactive: -0.16% [with zVAD 20 µM].

Regarding `Cc1ccc(OP(=O)(Nc2ccccn2)Oc2ccc(C)cc2)cc1`, the viability rescue was inactive: -0.39%.

Consider `COC(=O)c1cc2c(s1)N=C(c1ccccc1)N(C)P2(=O)N1CCOCC1` (stereo not given), for which the viability rescue was inactive: -0.00098% [with zVAD 20 µM].

Regarding `Cc1ccc(NP(=O)(Oc2ccccc2F)Oc2ccccc2F)nc1`, the viability rescue is inactive: 0.85%.

On to `CCOP(=O)(Nc1ccccc1)OCC`, for which the viability rescue was inactive: -0.68% and inactive: -1.08%.

In the case of `Cc1cc(SC(NC(=O)c2ccc(F)cc2)C(Cl)(Cl)Cl)ncn1` (stereo not given), the viability rescue was inactive: 0.38% [with zVAD 20 µM].

For the compound `O=P(Nc1nc2ccc(Cl)cc2s1)(c1ccccc1)c1ccccc1`, the viability rescue is inactive: 1.48%.

With `O=C(O)c1ccccc1[As](=O)(O)O`, the viability rescue is inactive: 1.2%.

Regarding `CC(=O)Nc1ccc([As](=O)(O)O)cc1`, the viability rescue was inactive: 0.03%.

With `Nc1cccc2ccc([As](=O)(O)O)cc12`, the viability rescue was inactive: 0.55%.

For `CCN(N=Nc1nonc1N)c1nonc1N`, the viability rescue was inactive: -0.05%.

As for `Clc1ccc(Cl)c(NC2=NCC(CBr)S2)c1` (stereo not given), the viability rescue is inactive: -0.9%.

With `CN1CCCC(OC(=O)C(c2ccccc2)c2ccccc2)C1` (stereo not given), the viability rescue is inactive: -0.22% [with zVAD 20 µM].

On to `Cc1ccc(OP(=O)(Nc2nccs2)Oc2ccc(C)cc2)cc1`, for which the viability rescue was inactive: -0.11%.

Take `COc1ccccc1OP(=O)(Nc1ccc(C)cn1)Oc1ccccc1OC`: the viability rescue was inactive: 1.77%.

`Cc1ccc(N/C(=N/P(=O)(N2CCOCC2)N2CCOCC2)N2CCOCC2)cc1`: the viability rescue was inactive: 3.33%.

Regarding `NC(=O)c1cc([N+](=O)[O-])cc([N+](=O)[O-])c1N`, the viability rescue was inactive: 61%.

With `Cc1c2non([O-])c-2c(C)[n+](=O)[n+]1[O-]`, the viability rescue is inactive: -0.75% [with zVAD 20 µM].

With `O=C(NC(Sc1ccncn1)C(Cl)(Cl)Cl)c1ccccc1` (stereo not given), the viability rescue is inactive: 1.28%.

On to `Oc1ccccc1CNc1ccccn1`, for which the viability rescue is inactive: 1.75%.

With `CC(C)CC(=O)NC(Sc1ccc(Cl)cc1)C(Cl)(Cl)Cl` (stereo not given), the viability rescue was inactive: -0.03% [with zVAD 20 µM].

With `Nc1cc(N)c2nonc2c1[N+](=O)[O-]`, the viability rescue is inactive: 0.24%.

For `O=[N+]([O-])c1cc([N+](=O)[O-])c(CCNc2ccccc2)c([N+](=O)[O-])c1`, the viability rescue is inactive: 1.61%.

Turning to `CCc1nc2c(n1)c1c(non1O)c1c2no[n+]1[O-]`, the viability rescue was inactive: 28.5% [with zVAD 20 µM].

For the compound `Cc1ccc(NP(=O)(Oc2ccccc2)Oc2ccccc2)nc1`, the viability rescue was inactive: 3.42%.

As to `CC(=O)N1C2C3N(C(C)=O)C1C1N(C(C)=O)C(C(N1C(C)=O)N3C(C)=O)N2C(C)=O`, the viability rescue was inactive: -0.14% [with zVAD 20 µM].

`O=[N+]([O-])c1cccc2n[nH]nc12`: the viability rescue is inactive: 3.66%.

Take `COc1ccc(C2=NCC(CBr)S2)cc1` (stereo not given): the viability rescue is inactive: 1.26%.

Turning to `CC1CCN(C(=O)Oc2c(Cl)cc(Cl)c3cccnc23)CC1`, the viability rescue is inactive: -0.41% [with zVAD 20 µM].

In the case of `CN(C)C(=O)OCCc1n(C)cc[n+]1C`, the viability rescue was inactive: -0.32%.

Regarding `CC(C)=N/N=C(\N)N[N+](=O)[O-]`, the viability rescue is inactive: -0.5%.

On to `CCN(/C(=N/P(=O)(N1CCOCC1)N1CCOCC1)N1CCOCC1)c1ccc(OC)cc1`, for which the viability rescue is inactive: 0.59%.

As to `C[N+]1=C2C=CC=CC=C2SC12C([N+](=O)[O-])=CC([N+](=O)[O-])=C[C-]2[N+](=O)[O-]` (stereo not given), the viability rescue is inactive: -0.82%.

For the compound `Nc1ccc([As](=O)(O)c2ccc(N)cc2)cc1`, the viability rescue was inactive: -0.03%.

As to `O=C(Nc1cc([As](=O)(O)O)ccc1O)c1ccccc1`, the viability rescue was inactive: 1.33%.

Regarding `O=C(O)CNc1ccc([As](=O)(O)O)cc1`, the viability rescue was inactive: 0.92%.

As to `O=[N+]([O-])c1cccc(NC2=NCC(CBr)S2)c1` (stereo not given), the viability rescue is inactive: -0.57%.

In the case of `O=[N+]([O-])c1ncn(CCn2ncnc2[N+](=O)[O-])n1`, the viability rescue is inactive: 0.6%.

On to `CC(C)(C)C(=O)NC(Sc1ccncn1)C(Cl)(Cl)Cl` (stereo not given), for which the viability rescue was inactive: 0.46%.

`Cc1cc(SC(NC(=O)c2ccccc2)C(Cl)(Cl)Cl)nc(C(C)C)n1` (stereo not given): the viability rescue was inactive: 0.89% [with zVAD 20 µM].

For the compound `CCOC(=O)Nc1ccc([As](=O)(O)O)c(O)c1`, the viability rescue is inactive: 0.58%.

Take `Cc1cc(SC(NC=O)C(Cl)(Cl)Cl)ncn1` (stereo not given): the viability rescue was inactive: 1%.

In the case of `O=P(Nc1ccccn1)(c1cccc2ccccc12)c1cccc2ccccc12`, the viability rescue was inactive: 0.79%.

On to `O=[N+]([O-])c1ccc(Nc2ccc(Oc3ccc([N+](=O)[O-])cc3[N+](=O)[O-])cc2)c([N+](=O)[O-])c1`, for which the viability rescue was inactive: -1.85%.

For `CCOC(=O)Nc1cccc([As](=O)(O)O)c1`, the viability rescue was inactive: 0.65%.

Turning to `O=C(COc1ccccc1)OC1CN2CCC1CC2` (stereo not given), the viability rescue was inactive: -0.32% [with zVAD 20 µM].

Take `COP1(=S)c2c(C)nn(CCC#N)c2N=C(c2ccc(F)cc2)N1C` (stereo not given): the viability rescue was inactive: -0.36% [with zVAD 20 µM].

Take `CCC(C)N(CC(C)C)C(=S)SC(NC(C)=O)C(Cl)(Cl)Cl` (stereo not given): the viability rescue is inactive: -0.63%.

As to `CCOC(=O)c1ccc(NC(=O)C(C)(CCl)SC)cc1` (stereo not given), the viability rescue is inactive: -0.46%.

For the compound `COc1cc(I)ccc1[As](=O)(O)O`, the viability rescue was inactive: -1.33%.

For the compound `COc1ccc2nc(NP(=O)(c3ccccc3)c3ccccc3)sc2c1`, the viability rescue is inactive: 0.98%.

As for `Cc1c2c(nc3ccccc13)SC(C(Cl)Cl)C2` (stereo not given), the viability rescue was inactive: 0.92%.

In the case of `Cc1cc(=O)[nH]c(N[N+](=O)[O-])n1`, the viability rescue was inactive: -0.09%.

For the compound `O=C(OC1CN2CCC1CC2)C12CC3CC(CC(C3)C1)C2` (stereo not given), the viability rescue is inactive: 0.76% [with zVAD 20 µM].

With `COc1ccc(N/C(=N/P(=O)(N2CCOCC2)N2CCOCC2)N2CCOCC2)cc1`, the viability rescue was inactive: 0.51%.

On to `Cc1ccc(OP(=O)(Nc2ccc([N+](=O)[O-])cn2)Oc2ccc(C)cc2)cc1`, for which the viability rescue was inactive: 0.56%.

Turning to `Cc1ccc2nc3c(c(C)c2c1)CC(C(Cl)Cl)S3` (stereo not given), the viability rescue is inactive: 1.07%.

As for `O=[As](O)(c1ccc(O)cc1)c1ccccc1O`, the viability rescue was inactive: 0.2%.

In the case of `C[As](=O)(O)c1cccc(C(=O)O)c1`, the viability rescue is inactive: 1.37%.

With `O=[N+]([O-])c1cc([N+](=O)[O-])c(-c2ccn[nH]2)s1`, the viability rescue was inactive: 5.03%.

Regarding `CCN(CC)C(=S)SC(NC=O)C(Cl)(Cl)Cl` (stereo not given), the viability rescue is inactive: -0.42% [with zVAD 20 µM].

For `CC(C)NC(=O)NP(=O)(Oc1ccccc1)Oc1ccccc1`, the viability rescue is inactive: 1.47%.

As to `ClCCSc1nnc(-c2cccnc2)o1`, the viability rescue was inactive: -0.18% [with zVAD 20 µM].

`CC(C)c1ccc(OP(=O)(Nc2ccccn2)Oc2ccccc2F)cc1` (stereo not given): the viability rescue is inactive: 0.25%.

With `O=C(O)COc1ccc([As](=O)(O)O)cc1[N+](=O)[O-]`, the viability rescue is inactive: 0.88%.

Regarding `Nc1ccccc1[As](=O)(O)c1ccccc1`, the viability rescue is inactive: -0.18%.

Take `O=P(Nc1nccs1)(c1ccccc1)c1nc2ccccc2s1` (stereo not given): the viability rescue is inactive: -0.65%.

For the compound `O=P(Nc1nccs1)(Oc1ccccc1)Oc1ccccc1`, the viability rescue was inactive: 0.36%.

As for `CCOP1(=S)c2c(C)nn(CCC#N)c2N=C(c2ccccc2F)N1C` (stereo not given), the viability rescue was inactive: -0.32% [with zVAD 20 µM].
